Earlier results as cited in patent US8759367B2, “Compounds and methods for the prevention and treatment of cancer” (The Wistar Institute, priority 2010, dated 2014).

Test system: GLI1-driven reporter activity mediated by exogenous SHH (Shh-light2 cells)
Settings: SHH-Light2 cells treated with recombinant SHH; Taipale, et al. (2000); cited from earlier work

CC1=C2C[C@H]3[C@@H](CC=C4C[C@@H](O)CC[C@@]43C)[C@@H]2CC[C@]12O[C@@H]1C[C@H](C)CN[C@H]1[C@H]2C [cyclopamine]
SHH-induced activation of GLI-dependant firefly luciferase: inhibited
